The values below are quoted from earlier work in publication PMC8929351 (Pharmacology Research & Perspectives, 2022).

The test system of the data set is rat µ receptor. The note with it: cited from earlier work.

`CN1CC[C@]23c4c5ccc(O)c4O[C@H]2[C@@H](O)C=C[C@H]3[C@H]1C5` [Morphine]: the Operational tau is recorded as 5.2 ± 0.2.
